Experimental data published in patent US20260382572A1, “TREATMENT OF FRONTOTEMPORAL DEMENTIA OR FRONTOTEMPORAL LOBAR DEMENTIA” (published 2026).

System: hyperphosphorylated tau in primary cultures of neurons expressing human tau with P301L mutation
Experiment: Hyperphosphorylated tau (AT8) in primary neuronal cultures treated with AAV-hTauP301L
Conditions: added every other day for 8 days, compound 1 at 30 μM
Source text: FIG. 6. Compound 1 reduces hyperphosphorylated tau species and tau seeding in vitro. Compound 1 reduces hyperphosphorylated tau levels (AT8) in primary neuronal cultures of mice after 8 days of AVV-hTauP301L treatment. Dimethyl fumarate was used as a positive control (DMF). (A) Representative images, AT8 is shown in green and Map2, marker of neurons, is shown in white. […] Compound 1 reduced tau seeding in HEK-293 tau FRET biosensor measured by flow cytometer (C). Tg4510 mouse brain homogenate was used as aggregant stimuli. […] Data represent mean±SEM.
Immunofluorescence labelling in in vitro and in vivo samples was performed as described in [Luengo, Enrique et al. “Implication of type 4 NADPH oxidase (NOX4) in tauopathy.” Redox biology vol. 49 (2022): 102210. doi:10.1016/j.redox.2021.102210].
Example 2.4. Compound 1 reduces levels of pathological hyperphosphorylated tau in primary cultures of neurons expressing human tau protein with P301L mutation. At day 10 after culture, neurons were treated with PBS or AAV-hTauP301L, and thereafter compound 1 (30 μM) was added every other day for 8 days. At the end of the experiment (day 18), neurons were fixed in 2% paraformaldehyde (Sigma-Aldrich) for 15 minutes. Thereafter, hyperphosphorylated tau levels were evaluated by immunofluorescence using AT8 antibody (FIG. 6A). […]

SMILES	AT8 intensity levels
COC(=O)/C=C/C(=O)OC	reduced AT8 intensity levels

System: not listed separately
Experiment: PAMPA-BBB in vitro blood-brain barrier permeation assay
Conditions: printed in brackets below Pe
Source text: The in vitro blood-brain barrier permeation assay (PAMPA-BBB) was used for predicting the brain penetration of compounds, following a described method [Herrera-Arozamena, Clara et al. “Resveratrol-Based MTDLs to Stimulate Defensive and Regenerative Pathways and Block Early Events in Neurodegenerative Cascades.” Journal of medicinal chemistry vol. 65, 6 (2022): 4727-4751. doi:10.1021/acs.jmedchem.lc01883]. The results are given as the mean±SD. In each experiment, 11 quality control standards of known BBB permeability were included to validate the analysis set.

SMILES	PAMPA-BBB classification (cns+)
C#CCN1c2ccc(OC)cc2CC1c1cn(CC#C)c2ccc(OC)cc12 (centres unmarked)	(cns+)
Clc1ccc2[nH]c(-c3c[nH]c4ccc(Cl)cc34)cc2c1	(cns+)
COc1ccc2[nH]c(-c3c[nH]c4ccc(OC)cc34)cc2c1	(cns+)
c1ccc2c(c1)CC(c1c[nH]c3ccccc13)N2 (centres unmarked)	(cns+)
COc1cccc2c1NC(c1c[nH]c3c(OC)cccc13)C2 (centres unmarked)	(cns+)
Clc1ccc2c(c1)CC(c1c[nH]c3ccc(Cl)cc13)N2 (centres unmarked)	(cns+)
FC(F)(F)c1ccc2c(c1)CC(c1c[nH]c3ccc(C(F)(F)F)cc13)N2 (centres unmarked)	(cns+)
